The chains behind the UniProt entries cited, without tags or fusion partners.
UniProt Q15102, whole entry: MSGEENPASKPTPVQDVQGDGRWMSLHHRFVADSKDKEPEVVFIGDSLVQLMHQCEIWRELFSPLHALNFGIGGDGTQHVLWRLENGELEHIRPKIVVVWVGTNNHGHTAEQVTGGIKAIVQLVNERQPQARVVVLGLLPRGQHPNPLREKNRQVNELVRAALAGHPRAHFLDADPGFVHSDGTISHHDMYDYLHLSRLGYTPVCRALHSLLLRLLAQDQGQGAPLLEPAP

This is a selection; strong and weak results do not stand in their true shares. Calls of active or inactive are those of the source.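 How the source made its calls: active means inhibition above the screen-wide average of all tested compounds plus 3 SD (cut at about 25% in these data); inactive means the rest.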
These compounds were tested against Platelet-activating factor acetylhydrolase IB subunit alpha1 (Homo sapiens) (UniProt Q15102) (assay: PAFAH1B3 enzyme inhibitors, primary screen, biochemical, fluorescence polarization, human (AID 492972;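 further: 0% = enzyme with DMSO only and 100% = wells lacking PAFAH1B3 protein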)). Settings: recombinant PAFAH1B3, FP-rhodamine probe, at 3.39 µM, hits give high values.
In the case of `O=C1CCN(Cc2ccccc2)CC1`, the inhibition is reported as inactive: 0.84%. `CCOc1ccc(C)cc1CN(CCCl)CCCl` was tested, and the inhibition was inactive: 14%. For `O=C(NCC1(N2CCCCC2)CCCCC1)c1ccc(F)cc1`, the inhibition was inactive: 0.6%. In the case of `CCCCOc1ccc(C(=O)NCC2(N3CCOCC3)CCCCC2)cc1`, the inhibition is reported as inactive: -0.03%. In the case of `O=P1(N(CCCl)CCCl)SCCCS1`, the inhibition is reported as inactive: 4.6%. For `CCOC(=O)N1CCC(Nc2ccc(F)cc2)CC1`, the inhibition was inactive: -0.13%. For `COc1ccc(NC2CCN(CCc3ccccc3)CC2)c(OC)c1`, the inhibition was inactive: 2.97%. For `COc1cc(C(=O)NCC2(N(C)C)CCCCC2)ccc1OC(F)F`, the inhibition was inactive: 2.52%. With `CCOC(=O)N1CCC(Nc2cccc(C)c2)CC1` the inhibition was inactive: 6.03%. `COc1ccc(C(=O)NCC2(N3CCCCC3)CCCCC2)cc1` was tested, and the inhibition was inactive: -1.57%. `CC(C)(C)OC(=O)N1CCC(N(C(=O)c2ccccc2)c2ccc(F)cc2)CC1` was tested, and the inhibition was inactive: 9.19%. `COc1ccc(C(=O)NCC2(N3CCCCC3)CCCCC2)c(OC)c1OC` was tested, and the inhibition was inactive: 0.51%. With `O=C(NCC1(N2CCCCC2)CCCCC1)c1ccc(=O)[nH]c1` the inhibition was inactive: 4.22%. In the case of `O=C(NCC1(N2CCCCC2)CCCCC1)c1cccs1`, the inhibition is reported as inactive: -6.02%. With `CSc1ccccc1C(=O)NCC1(N2CCCCC2)CCCCC1` the inhibition was inactive: -5.73%. For `Cc1cccc(NC2(C#N)CCN(Cc3ccccc3)CC2)c1`, the inhibition was inactive: 9.43%. `O=C(NCC1(N2CCCCC2)CCCCC1)c1ccc(Cl)nc1` was tested, and the inhibition was inactive: -4.39%. With `Cc1cc(C)cc(N(C(=O)c2ccccc2)C2CCN(C(=O)OC(C)(C)C)CC2)c1` the inhibition was inactive: -2.15%. With `O=C(NCC1(N2CCOCC2)CCCCC1)c1cc2ccccc2o1` the inhibition was inactive: 8.84%. In the case of `O=C(OC1CN2CCC1CC2)C1c2ccccc2Oc2ccccc21` (centres undefined), the inhibition is reported as inactive: -1.51%. With `N#CC1(Nc2ccccc2)CCN(Cc2ccccc2)CC1` the inhibition was inactive: 4.95%. `O=C(NCC1(N2CCCCC2)CCCCC1)c1ccc(Cl)s1` was tested, and the inhibition was inactive: -2.05%. With `COc1ccc(Cl)cc1C(=O)NCC1(N2CCOCC2)CCCCC1` the inhibition was inactive: 7.14%. `CCOC(=O)N1CCC(Nc2ccc(OC)cc2)CC1` was tested, and the inhibition was inactive: 9.59%. In the case of `CC(C)c1ccc(NC2CCN(C(=O)OC(C)(C)C)CC2)cc1`, the inhibition is reported as inactive: 1.32%. In the case of `COc1ccc(CN(CCCl)CCCl)cc1Cl`, the inhibition is reported as inactive: 3.24%. With `CN(C)c1cccc(C(=O)NCC2(N3CCCCC3)CCCCC2)c1` the inhibition was inactive: -1.71%. With `COc1cc(OC)c(C(=O)NCC2(N(C)C)CCCCC2)cc1OC` the inhibition was inactive: 6.92%. With `O=C(NCC1(N2CCOCC2)CCCCC1)c1cc(F)c(F)cc1Cl` the inhibition was inactive: 3.38%. In the case of `O=C(NCC1(N2CCCCC2)CCCCC1)c1cncc(Br)c1`, the inhibition is reported as inactive: -4.25%. For `CN1CCC(Nc2cccc(F)c2)CC1`, the inhibition was inactive: 10.3%. For `CCCOc1ccc(C(=O)NCC2(N(C)C)CCCCC2)cc1OC`, the inhibition was inactive: 5.19%. `O=C(NCC1(N2CCCCC2)CCCCC1)c1ccc(OC(F)F)cc1` was tested, and the inhibition was inactive: -1.14%. With `CCN1CCC(Nc2ccc(Cl)cc2)CC1` the inhibition was inactive: 4.44%. In the case of `N#CC1(Nc2ccccc2)CCN(CCc2ccccc2)CC1`, the inhibition is reported as inactive: 2.5%. `CSc1ccc(C(=O)NCC2(N3CCOCC3)CCCCC2)cc1` was tested, and the inhibition was inactive: -0.78%. `O=C(NCC1(N2CCCCC2)CCCCC1)c1cccc([N+](=O)[O-])c1` was tested, and the inhibition was inactive: 2.72%. With `O=C(NCC1(N2CCCCC2)CCCCC1)c1cccc(C(F)(F)F)c1` the inhibition was inactive: -2.24%. `O=C(NCC1(N2CCOCC2)CCCCC1)c1cc(=O)[nH]c2ccccc12` was tested, and the inhibition was inactive: 8.97%. `COc1cc(C(=O)NCC2(N3CCCCC3)CCCCC2)ccc1OC(F)F` was tested, and the inhibition was inactive: -18.6%. With `CC(C)c1ccc(C(=O)NCC2(N3CCOCC3)CCCCC2)cc1` the inhibition was inactive: -0.19%. `COc1ccc(NC2CCN(C(=O)OC(C)(C)C)CC2)cc1` was tested, and the inhibition was inactive: 6.88%. `CN1CCN(CCOC(=O)C(O)(c2ccccc2)c2ccccc2)CC1` was tested, and the inhibition was inactive: -1.48%. `N#Cc1ccc(C(=O)NCC2(N3CCCCC3)CCCCC2)cc1` was tested, and the inhibition was inactive: 0.6%. With `CC(C)(C)OC(=O)N1CCC(N(C(=O)c2ccccc2)c2ccc(Cl)cc2)CC1` the inhibition was inactive: 7.38%. For `CN(C)C1(CNC(=O)c2cccc(C#N)c2)CCCCC1`, the inhibition was inactive: 0.81%. `c1ccc(CN2CCC(Nc3ccccc3)CC2)cc1` was tested, and the inhibition was inactive: 5.99%. With `Cc1cc(N(CCCl)CCCl)ccc1C=O` the inhibition was inactive: -6.47%. `CCCN1CCC(Nc2cc(OC)cc(OC)c2)CC1` was tested, and the inhibition was inactive: 6.23%. `COc1cc(C(=O)NCC2(N3CCOCC3)CCCCC2)cc(OC)c1C` was tested, and the inhibition was inactive: 7.27%. For `O=C(NCC1(N2CCOCC2)CCCCC1)c1cc(Br)ccc1Cl`, the inhibition was inactive: 3.54%. With `COc1ccc(C(=O)NCC2(N3CCOCC3)CCCCC2)cc1OC` the inhibition was inactive: -3.32%. For `CCOC(=O)N1CCC(Nc2ccc(C)cc2)CC1`, the inhibition was inactive: 1.82%. In the case of `N/C(=N\O)c1c(N)no[n+]1[O-]`, the inhibition is reported as inactive: -5.53%. In the case of `O=C(OC1CN2CCC1CC2)C1c2ccccc2C=Cc2ccccc21` (centres undefined), the inhibition is reported as inactive: 9.92%. For `CCOc1ncccc1C(=O)NCC1(N2CCOCC2)CCCCC1`, the inhibition was inactive: 8.22%. `CN1CCC(Nc2ccc(F)c(Cl)c2)CC1` was tested, and the inhibition was inactive: 4.89%. In the case of `CC(C)(C)OC(=O)N1CCC(Nc2ccccc2)CC1`, the inhibition is reported as inactive: -3.22%. With `O=C(O)C1(Nc2ccccc2)CCN(Cc2ccccc2)CC1` the inhibition was inactive: 3.53%. For `CCCOc1ccc(C(=O)NCC2(N(C)C)CCCCC2)cc1`, the inhibition was inactive: 3.79%. With `COc1cccc(C(=O)N(c2cc(C)cc(C)c2)C2CCN(C(=O)OC(C)(C)C)CC2)c1` the inhibition was inactive: 7.97%. With `COc1cc(OC)cc(C(=O)NCC2(N3CCOCC3)CCCCC2)c1` the inhibition was inactive: 6.4%. `CCC(CO)(C(=O)OC1CN2CCC1CC2)c1ccccc1` (centres undefined) was tested, and the inhibition was inactive: 3.05%. For `CN1CCC(Nc2ccc(Cl)cc2)CC1`, the inhibition was inactive: -0.36%. `CC(=O)N(c1ccccc1)C1CCNCC1` was tested, and the inhibition was inactive: 2.52%. With `COc1cc(OC)cc(C(=O)NCC2(N3CCCCC3)CCCCC2)c1` the inhibition was inactive: 2.49%. For `Cc1ccc(C(=O)NCC2(N3CCCCC3)CCCCC2)o1`, the inhibition was inactive: 1.64%. For `Fc1ccccc1NC1CCN(Cc2ccccc2)CC1`, the inhibition was inactive: 5.27%. With `Cc1ccc(NC2(C#N)CCN(Cc3ccccc3)CC2)cc1` the inhibition was inactive: 5.95%. `Cc1ccccc1NC1(C#N)CCN(Cc2ccccc2)CC1` was tested, and the inhibition was inactive: 6.04%. In the case of `CCN1CCC(Nc2cccc(F)c2)CC1`, the inhibition is reported as inactive: 5.32%. In the case of `O=C(NCC1(N2CCCCC2)CCCCC1)c1ccco1`, the inhibition is reported as inactive: -3.67%. For `Cn1c(=O)[nH]cc(N(CCCl)CCCl)c1=O`, the inhibition was inactive: 4.29%. With `CN(C)c1ccc(C(=O)NCC2(N3CCCCC3)CCCCC2)cc1` the inhibition was inactive: -1.83%.
